Assay results: patent US4668672A, “Feed compositions containing pyridylalkylhydrazides” (SmithKline Beckman Corporation, priority 1985, dated 1987)

System: swine ileal or cecal inoculum (filtrate of cannula material)
Test: In vitro swine procedure (incubation of inoculum from cannulated swine, in vitro fistula procedure)
Set-up: species or system swine (Yorksire barrow)
Conditions: 5 hours at 37°, blank control = 100%; for LAC (L lactic acid): 1.67 ppm

COC(=O)NN=C(C)c1ccccn1 [drawing 3]
LAC (L lactic acid): 95 % of Control Values
GLU (glucose) (16.67 ppm): 117 % of Control Values
GLU (glucose) (166.67 ppm): 114 % of Control Values

COC(=O)NN=Cc1ccccn1 [drawing 4]
LAC (L lactic acid): 96 % of Control Values
GLU (glucose) (16.67 ppm): 114 % of Control Values
GLU (glucose) (166.67 ppm): 92 % of Control Values
